Reference: ChEMBL document CHEMBL4715826, “Selective PPARδ Modulators Improve Mitochondrial Function: Potential Treatment for Duchenne Muscular Dystrophy (DMD)” (ACS Med Chem Lett, 2018)

Assays:
[1] = molecular target: T1, Peroxisome proliferator-activated receptor delta (Mus musculus) (UniProt P35396); test: Modulator activity at PPARdelta in mouse primary myoblasts derived from DMD patient assessed as upregulation of ANGPTL4 gene expression at 4 nM measured after 48 hrs; format: tissue-based; details: Primary myotube, filed as modulator
T1 sequence (whole entry): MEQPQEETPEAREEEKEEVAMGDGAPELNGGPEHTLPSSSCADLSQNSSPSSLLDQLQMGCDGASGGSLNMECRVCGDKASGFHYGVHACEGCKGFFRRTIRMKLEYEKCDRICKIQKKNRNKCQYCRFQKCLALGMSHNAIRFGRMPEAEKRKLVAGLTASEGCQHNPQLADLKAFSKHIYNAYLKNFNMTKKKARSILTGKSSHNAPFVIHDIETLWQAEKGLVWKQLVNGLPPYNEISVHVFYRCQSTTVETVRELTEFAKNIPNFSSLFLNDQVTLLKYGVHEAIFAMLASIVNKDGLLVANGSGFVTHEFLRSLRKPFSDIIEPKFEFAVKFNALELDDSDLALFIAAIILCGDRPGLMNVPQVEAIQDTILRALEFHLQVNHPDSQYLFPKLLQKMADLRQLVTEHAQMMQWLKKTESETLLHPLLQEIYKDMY

[2] = molecular target: T1, Peroxisome proliferator-activated receptor delta (Mus musculus); test: Modulator activity at PPARdelta in mouse primary myoblasts derived from DMD patient assessed as upregulation of ANGPTL4 gene expression at 40 nM measured after 48 hrs; format: tissue-based; details: Primary myotube, filed as modulator
[3] = molecular target: Peroxisome proliferator-activated receptor delta (Homo sapiens) (UniProt Q03181); test: Modulator activity at PPARdelta in human primary myoblasts derived from DMD patient assessed as upregulation of PDK4 gene expression measured after 48 hrs; details: Primary myotube, filed as modulator, dose 0.04-40 nM
[4] = molecular target: Peroxisome proliferator-activated receptor delta (Homo sapiens) (UniProt Q03181); test: Modulator activity at PPARdelta in human primary myoblasts derived from DMD patient assessed as upregulation of CPT1a gene expression measured after 48 hrs; details: Primary myotube, filed as modulator
[5] = molecular target: Peroxisome proliferator-activated receptor delta (Homo sapiens) (UniProt Q03181); test: Modulator activity at PPARdelta in human primary myoblasts derived from DMD patient assessed as upregulation of ANGPTL4 gene expression measured after 48 hrs; details: Primary myotube, filed as modulator, dose 0.04-40 nM
[6] = molecular target: Peroxisome proliferator-activated receptor delta (Homo sapiens) (UniProt Q03181); test: Modulator activity at PPARdelta in human primary myoblasts derived from DMD patient assessed as upregulation of PDK4 gene expression at 4 nM measured after 48 hrs; details: Primary myotube, filed as modulator
[7] = molecular target: Peroxisome proliferator-activated receptor delta (Homo sapiens) (UniProt Q03181); test: Modulator activity at PPARdelta in human primary myoblasts derived from DMD patient assessed as upregulation of PDK4 gene expression at 40 nM measured after 48 hrs; details: Primary myotube, filed as modulator
[8] = molecular target: Peroxisome proliferator-activated receptor delta (Homo sapiens) (UniProt Q03181); test: Modulator activity at PPARdelta in human primary myoblasts derived from DMD patient assessed as increase in palmitic acid oxidation at 1.2 to 12 nM measured after 48 hrs by Seahorse assay; details: Primary myotube, filed as modulator, dose 1.2-12 nM

Cc1cnc(-c2ccc(OC(F)(F)F)cc2)n1Cc1ccccc1OCCC[C@@H](C)CC(=O)O
Activity [1]: 143%
Activity [2]: 143%
Activity [3]: Dose-dependent effect
Activity [4]: Dose-dependent effect
Activity [5]: Dose-dependent effect
Activity [6]: 144%
Activity [7]: 146%
Activity [8]: < 52%
